Measurements reported in publication PMC11258351, “PK/PD investigation of antiviral host matriptase/TMPRSS2 inhibitors in cell models” (Scientific Reports, 2024).

Amino acid sequences for entries named in this document (tags omitted).
UniProt P05177, whole entry: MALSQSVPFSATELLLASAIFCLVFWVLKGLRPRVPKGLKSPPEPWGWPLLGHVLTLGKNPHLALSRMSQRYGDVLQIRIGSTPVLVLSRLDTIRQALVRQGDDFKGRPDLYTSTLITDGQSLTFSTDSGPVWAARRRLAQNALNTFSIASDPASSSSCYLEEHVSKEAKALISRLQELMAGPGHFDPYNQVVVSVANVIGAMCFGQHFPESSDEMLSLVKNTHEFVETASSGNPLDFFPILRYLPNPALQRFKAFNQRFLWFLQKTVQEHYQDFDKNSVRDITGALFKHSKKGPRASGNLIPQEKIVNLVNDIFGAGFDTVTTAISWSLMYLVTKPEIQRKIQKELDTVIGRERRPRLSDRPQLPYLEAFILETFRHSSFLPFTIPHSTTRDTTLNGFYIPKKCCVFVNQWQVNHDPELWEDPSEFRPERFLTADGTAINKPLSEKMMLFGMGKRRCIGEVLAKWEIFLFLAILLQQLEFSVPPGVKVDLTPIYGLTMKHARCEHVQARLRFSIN

Target: CYP1A2 (Homo sapiens, UniProt P05177)
Assay: Fluorometric CYP1A2 activity assay in human hepatic microsomes
Conditions: human liver microsomes, 6 µM, p < 0.001

Inhibition of CYP1A2 activity by reference inhibitor: significantly suppressed
SMILES: O=c1cc(-c2ccccc2)oc2c1ccc1ccccc12 [α-naphthoflavone, reference compound]
